From US20050191668A1, “Methods of using peroxisome proliferator-activated receptor alpha target genes” (priority 2004, published 2005) come the findings set out here.

For assay [1], the system named is Pa21 gene. In words: Pa21 gene expression by real-time RT-PCR in primary skeletal muscle cells. Particulars: 300 uM, about 18-20 hours, vehicle control = 100. It is filed as cell-based, human. The text has this:
(§1) Human hepatocyte HuH7 cells, which are epithelial cells of liver, were obtained from Japan Health Science Research Resources Bank (Osaka, Japan). Human primary adipocytes, which are connective tissue cells specialized for the synthesis and storage of fat, were obtained from Zen-Bio, Inc (Research Triangle Park, NC). Human primary skeletal muscle cells (SKMC) were obtained from Cambrex Bio Science (Walkersville, Md.). PPARα agonists, Wy14643 (Agatha, et al, 2000, Archives of Biochemistry and Biophysics 380:353-359) and fenofibrates were obtained from Cayman Chemical (Ann Arbor, Mich.) and Sigma (St Louis, Mo.), respectively.
(§2) Human HuH7 cells were cultured in Dulbecco's Modified Eagle Medium with 10% Fetal Bovine Serum (Gibco, N.Y.). […]
(§3) Reverse transcription (RT) and PCR were conducted in one step using “One-Step RT-PCR Master Mix Reagent” kit (Applied Biosystems, Foster City, Calif.) in ABI PRISM 7700 Sequence Detection System (Applied Biosystems). […] PCR data were collected by Ct value (the cycle number at which logarithmic PCR plots cross a calculated threshold line) according to the manufacturer's guidelines and the value was used to determine the Δ^Ct (Ct of the target gene minus the Ct of 18S ribosomal RNA controls). Relative mRNA level was calculated using the equation 2^−ΔΔCt as described previously (Heid et al., 1996, Genome Res. 6:986-994).

Assay [2] concerns Pa9 gene. In words: Pa9 gene expression by real-time RT-PCR in primary adipocytes. It counts as cell-based, human. Particulars: about 18-20 hours, vehicle control = 100.
Excerpt: as §1, §2, §3
In general terms: In qPCR the cycle at which signal appears reflects the starting amount.

Consider `CC(C)OC(=O)C(C)(C)Oc1ccc(C(=O)c2ccc(Cl)cc2)cc1` [Fenofibrate], for which, in assay [1], the “Pa21 (H4960) gene expression, Percentage ± SE (%)” value is 710 ± 23.1%. The entries for the “Pa9 (W38098) gene expression, Percentage ± SE (%)” value in assay [2] (10 uM) and in assay [2] (250 uM) were 114 ± 11.4% and 526 ± 25.8%, respectively.
